From patent US20250009763A1, “METHODS FOR EXTENDING LIFESPAN AND/OR DELAYING AGING” (priority 2023, published 2025)

Legend:
SIRT1 [1] = target: T1, SIRT1 (Homo sapiens, UniProt Q96EB6); assay: Acetylation of p53 (K382) via UV irradiation, western blot, U2OS cells; format: cell-based; settings: Ex527 added before PN6, FIGS. 2E-2F
T1 construct: endogenous in cells; host or cells: U2OS cells; IMR90 cells
T1 sequence (Q96EB6 1-747): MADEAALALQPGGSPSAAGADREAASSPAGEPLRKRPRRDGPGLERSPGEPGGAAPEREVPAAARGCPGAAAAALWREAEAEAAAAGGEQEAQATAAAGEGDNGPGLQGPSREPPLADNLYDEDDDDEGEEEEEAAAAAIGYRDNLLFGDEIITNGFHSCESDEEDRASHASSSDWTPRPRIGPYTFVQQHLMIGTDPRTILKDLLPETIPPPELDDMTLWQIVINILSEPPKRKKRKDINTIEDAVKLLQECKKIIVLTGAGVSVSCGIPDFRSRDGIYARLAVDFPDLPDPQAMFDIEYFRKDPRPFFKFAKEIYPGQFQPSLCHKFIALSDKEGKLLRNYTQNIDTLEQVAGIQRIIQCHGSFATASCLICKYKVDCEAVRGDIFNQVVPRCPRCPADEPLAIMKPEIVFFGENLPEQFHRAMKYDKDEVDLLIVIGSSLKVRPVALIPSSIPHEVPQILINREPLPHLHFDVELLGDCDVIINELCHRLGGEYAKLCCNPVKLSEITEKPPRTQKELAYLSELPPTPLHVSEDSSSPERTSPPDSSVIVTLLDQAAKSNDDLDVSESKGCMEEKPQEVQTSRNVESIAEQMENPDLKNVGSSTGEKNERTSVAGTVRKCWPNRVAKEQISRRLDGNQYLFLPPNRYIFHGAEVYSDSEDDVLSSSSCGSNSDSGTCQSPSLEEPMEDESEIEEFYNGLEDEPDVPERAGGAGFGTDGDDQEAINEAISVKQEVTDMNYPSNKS
Experimental: (§1) U2OS cells (1.2×10^5 cells/dish) or IMR90 cells (3.0×10^5 cells/dish) were seeded into a 3.5 cm culture dish, and incubated with 0, 10, 25, 50, or 100 μM PN6 for 16 hours, before subjected to UVB irradiation at 7.5 mJ/m^2 (for U2OS cells) or 5.0 mJ/m^2 (for IMR90 cells) for 4 hours. In the case when selisistat (Ex527, an inhibitor for yeast SIR2 or mammalian SIRT1) was added, 1 μl of 50 mM Ex527 was added to the culture one hour prior to the addition of PN6.
(§2) Cells were harvested with a 1.25× Laemmli buffer and lysed in RIPA lysis buffer containing 1% of Triton X-100 and a protease inhibitor cocktail, and total protein concentrations were measured with a protein assay kit. Proteins in the samples of the lysates with the same amounts of total protein were separated by sodium dodecyl sulfate polyacrylamide gel electrophoresis (SDS-PAGE) (10% polyacrylamide gels) and analyzed by immunoblotting. Primary antibodies against p53ac (K382) (1:1,000), p21 (1:1,000), and 3-actin (1:200,000) were applied to detect the corresponding proteins. Horseradish peroxidase (HRP)-conjugated secondary antibodies against mouse IgG were then incubated with the membranes, and proteins were visualized by chemiluminescence according to the manufacturer's instructions. Protein quantification was performed by software.

SIRT1 [2] = target: T1, SIRT1; assay: Acetylation of p53 (K382) via UV irradiation, western blot, IMR90 cells; format: cell-based; settings: presence of Ex527, FIGS. 2I-2J
Experimental: as §1, §2

selisistat [Ex527, reference compound]
effect on SIRT1 activity induced by PN6 (SIRT1 [1]): compromised | effect on PN6-induced reversal of P53 acetylation (SIRT1 [2]): eliminated
